Values joined by “and” are separate entries in the source; they are usually repeats but may differ in a detail not shown here. Equal entries are not always repeated. The list shows a part of the results, in another mix than the full data. Active and inactive are the calls of the source.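 How the source made its calls: active means inhibition above the mean plus 3 SD of all compounds in the same screening run (cut at about 4.5% in these data); inactive means the rest.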
system: metallo-beta-lactamase IMP-1 (Pseudomonas aeruginosa); experiment: inhibition of IMP-1 nitrocefin hydrolysis – biochemical, epi-absorbance readout, Pseudomonas aeruginosa enzyme, primary screen (AID 1556); conditions: purified IMP-1, nitrocefin hydrolysis, epi-absorbance fluorescence; at 5.6 µM; active compounds read high;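 further: 0% = IMP-1 with DMSO and 100% = DMSO wells lacking enzyme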

| SMILES | inhibition |
| --- | --- |
| Cc1ccc2nc3c(c(C)c2c1)CC(C(Cl)Cl)S3 (stereo unspecified) | inactive: 0.15% |
| O=[As](O)(c1ccc(O)cc1)c1ccccc1O | inactive: -1.21% |
| C[As](=O)(O)c1cccc(C(=O)O)c1 | inactive: -1.8% |
| Cc1cc(SC(NC=O)C(Cl)(Cl)Cl)ncn1 (stereo unspecified) | inactive: -2.58% |
| O=P(Nc1ccccn1)(c1cccc2ccccc12)c1cccc2ccccc12 | inactive: -1.35% |
| O=[N+]([O-])c1ccc(Nc2ccc(Oc3ccc([N+](=O)[O-])cc3[N+](=O)[O-])cc2)c([N+](=O)[O-])c1 | inactive: -2.25% |
| CCOC(=O)Nc1cccc([As](=O)(O)O)c1 | inactive: -1.56% |
| CCCCOc1ccc(C(=O)NCC2(N3CCCCC3)CCCCC2)cc1OC | inactive: 1.21% |
| Cc1cc(SC(NC(=O)c2ccccc2)C(Cl)(Cl)Cl)nc(C(C)C)n1 (stereo unspecified) | inactive: -4.11% |
| CCOC(=O)Nc1ccc([As](=O)(O)O)c(O)c1 | inactive: -2.38% |
| CCC(C)N(CC(C)C)C(=S)SC(NC(C)=O)C(Cl)(Cl)Cl (stereo unspecified) | inactive: -7.34% |
| O=C(OC1CN2CCC1CC2)c1cccc([N+](=O)[O-])c1 (stereo unspecified) | inactive: -0.27% |
| CCOC(=O)c1ccc(NC(=O)C(C)(CCl)SC)cc1 (stereo unspecified) | inactive: -3.78% |
| O=C(COc1ccccc1)OC1CN2CCC1CC2 (stereo unspecified) | inactive: -2.66% |
| O=C(Nc1ccncc1[N+](=O)[O-])c1ccc([N+](=O)[O-])cc1[N+](=O)[O-] | inactive: -4.35% |
| COP1(=S)c2c(C)nn(CCC#N)c2N=C(c2ccc(F)cc2)N1C (stereo unspecified) | inactive: -6.46% |
| CC1CCN(C(=O)Oc2c(Cl)cc(Cl)c3cccnc23)CC1 | inactive: -1.19% |
| CC(C)=N/N=C(\N)N[N+](=O)[O-] | inactive: -0.74% |
| CN(C)C(=O)OCCc1n(C)cc[n+]1C | inactive: -0.28% |
| CCN(/C(=N/P(=O)(N1CCOCC1)N1CCOCC1)N1CCOCC1)c1ccc(OC)cc1 | inactive: -3.24% |
| Nc1ccc([As](=O)(O)c2ccc(N)cc2)cc1 | inactive: -0.25% |
| C[N+]1=C2C=CC=CC=C2SC12C([N+](=O)[O-])=CC([N+](=O)[O-])=C[C-]2[N+](=O)[O-] (stereo unspecified) | inactive: -0.55% |
| Cc1ccc(NP(=O)(Oc2ccccc2)Oc2ccccc2)nc1 | inactive: -0.26% |
| O=[N+]([O-])c1cc([N+](=O)[O-])c(CCNc2ccccc2)c([N+](=O)[O-])c1 | inactive: -4.14% |
| CCc1nc2c(n1)c1c(non1O)c1c2no[n+]1[O-] | inactive: -3.02% |
| CC(=O)N1C2C3N(C(C)=O)C1C1N(C(C)=O)C(C(N1C(C)=O)N3C(C)=O)N2C(C)=O | inactive: -2.74% |

| SMILES | inhibition |
| --- | --- |
| O=[N+]([O-])c1cccc2n[nH]nc12 | inactive: -0.29% |
| COc1ccc(C2=NCC(CBr)S2)cc1 (stereo unspecified) | inactive: -3% |
| O=C(O)CNc1ccc([As](=O)(O)O)cc1 | inactive: -2.4% |
| O=[N+]([O-])c1cccc(NC2=NCC(CBr)S2)c1 (stereo unspecified) | inactive: -4.58% |
| O=[N+]([O-])c1ncn(CCn2ncnc2[N+](=O)[O-])n1 | inactive: -2.12% |
| CC(C)(C)C(=O)NC(Sc1ccncn1)C(Cl)(Cl)Cl (stereo unspecified) | inactive: -3.04% |
| O=C(Nc1cc([As](=O)(O)O)ccc1O)c1ccccc1 | inactive: -0.94% |
| Nc1cccc2ccc([As](=O)(O)O)cc12 | inactive: -1.58% |
| CCN(N=Nc1nonc1N)c1nonc1N | inactive: -2.53% |
| O=[N+]([O-])c1cc([N+](=O)[O-])c(CCN2CCOCC2)c([N+](=O)[O-])c1 | inactive: -0.76% |
| CCOP(=O)(Nc1ccccc1)OCC | inactive: -2.94% and inactive: -0.95% |
| Cc1cc(SC(NC(=O)c2ccc(F)cc2)C(Cl)(Cl)Cl)ncn1 (stereo unspecified) | inactive: -2.94% |
| Cc1ccc(NP(=O)(Oc2ccccc2F)Oc2ccccc2F)nc1 | inactive: -2.7% |
| O=P(Nc1nc2ccc(Cl)cc2s1)(c1ccccc1)c1ccccc1 | inactive: -3.14% |
| O=C(O)c1ccccc1[As](=O)(O)O | inactive: -1.83% |
| CC(=O)Nc1ccc([As](=O)(O)O)cc1 | inactive: -4.4% |
| Oc1ccccc1CNc1ccccn1 | inactive: -4.31% |
| Cc1c2non([O-])c-2c(C)[n+](=O)[n+]1[O-] | inactive: -4.7% |
| O=C(NC(Sc1ccncn1)C(Cl)(Cl)Cl)c1ccccc1 (stereo unspecified) | inactive: -2.61% |
| CC(C)CC(=O)NC(Sc1ccc(Cl)cc1)C(Cl)(Cl)Cl (stereo unspecified) | inactive: -1.54% |
| Nc1cc(N)c2nonc2c1[N+](=O)[O-] | inactive: -4.06% |
| Clc1ccc(Cl)c(NC2=NCC(CBr)S2)c1 (stereo unspecified) | inactive: -1.4% |
| CN1CCCC(OC(=O)C(c2ccccc2)c2ccccc2)C1 (stereo unspecified) | inactive: -3.09% |
| COc1ccccc1OP(=O)(Nc1ccc(C)cn1)Oc1ccccc1OC | inactive: -0.5% |
| Cc1ccc(OP(=O)(Nc2nccs2)Oc2ccc(C)cc2)cc1 | inactive: -4.07% |
